Assay results published in patent US20050123936A1, “Method, composition, and kit to design, evaluate, and/or test compounds that modulate regulatory factor binding to nucleic acids” (priority 2003, published 2005).

Sequences of proteins named here, by UniProt entry; tags and fusion partners are left off. Residues count along the entry.
UniProt P40427, 238-324 limits assumed: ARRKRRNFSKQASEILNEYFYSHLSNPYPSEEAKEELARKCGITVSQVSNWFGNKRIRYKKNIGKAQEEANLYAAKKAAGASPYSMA

What was measured:
[1] = molecular target: TGGTCA matched site on 250-bp EcoRI/PvuII restriction fragment from plasmid pDEH9; assay: Quantitative DNase I footprint titration, matched site; conditions: read-out: Equilibrium Dissociation Constants Kd, TGGTCA, 12 h at 22° C., TKMC buffer pH 7.0
Method: (§1) Quantitative DNaseI footprinting can be used to determine the equilibrium association constants for binding to match and mismatch sites. Footprinting experiments are generally performed on 3′- and/or 5′-^32P end restriction fragments derived from plasmids. 3′-shifted cleavage patterns are consistent with location of the polyamide in the minor groove. Typical reaction conditions are: 10 mM Tris-HCl, 10 mM KCl, 10 mM MgCl2, 5 mM CaCl2, pH 7.0, and 22° C. See Brenowitz et al. (1986). Methods Enzymol. 130:132-181; Fox & Waring (1984) Nucleic Acids Res. 12:9271-9285; and Brenowitz et al. (1986) Proc. Natl. Acad. Sci. U.S.A. 83: 8462-8466.
(§2) DNase I Footprinting: Dissociation constants for the DNA binding of compounds 1, 2 and 3 were obtained following published protocols. All reactions were carried out in 400 μL total volume employing 20 kcpm of a 3′-radiolabelled 250-bp restriction fragment from the plasmid pDEH9 (FIG. 1a) (SEQ. ID. NO: 4). […]
(§3) FIGS. 1b, 1c, and 1d are quantitative DNAse I footprint titration experiments for compounds 1, 2 and 3 on the 3′^−32 P-labeled 250-bp EcoRI/PvuII restriction fragment from the plasmid pDEH9. […]
(§4) The DNA-binding properties of the compounds 1-3 were investigated by quantitative DNase 1 footprinting assays. […]

[2] = molecular target: TGGCCA mismatch site on 250-bp EcoRI/PvuII restriction fragment from plasmid pDEH9; assay: Quantitative DNase I footprint titration, mismatch site TGGCCA
Method: as §1, §2, §3, §4

[3] = test system: TGGGCA mismatch site on 250-bp EcoRI/PvuII restriction fragment from plasmid pDEH9; assay: Quantitative DNase I footprint titration, mismatch site TGGGCA
Method: as §1
DNase I Footprinting: Dissociation constants for the DNA binding of compounds 1, 2 and 3 were obtained following published protocols. All reactions were carried out in 400 μL total volume employing 20 kcpm of a 3′-radiolabelled 250-bp restriction fragment from the plasmid pDEH9 (FIG. 1a) (SEQ. ID. NO: 4). No carrier DNA was used in the equilibration, and the solutions were allowed to equilibrate for 12 h at 22° C. in TKMC buffer (10 mM TRIS, 10 mM KCl, […], 5 mM CaCl2 pH 7.0) prior to the DNase I digestion. Reaction products (8 kcpm) were resolved on denaturing 8% polyacrylamide sequencing gels run at 55 W.
FIGS. 1b, 1c, and 1d are quantitative DNAse I footprint titration experiments for compounds 1, 2 and 3 on the 3′^−32 P-labeled 250-bp EcoRI/PvuII restriction fragment from the plasmid pDEH9. Lane 1: Intact DNA. Lane 2: A-reaction. Lane 3: G-reaction. Lane 4: DNAse 1 standard.
The DNA-binding properties of the compounds 1-3 were investigated by quantitative DNase 1 footprinting assays. The equilibrium binding constants of each of the compounds for a matched versus three single base pair mismatch sites is compiled in Table 1. The lower strand sequence is shown in the header. Mismatched base pairs are underlined. The residue under the YPWM peptide is in bold. Relative specificities are given in square brackets.

[4] = molecular target: AGCTCA mismatch site on 250-bp EcoRI/PvuII restriction fragment from plasmid pDEH9; assay: Quantitative DNase I footprint titration, mismatch site AGCTCA
Method: as §1, §2, §3, §4

[5] = molecular target: extradenticle (Exd) protein (residues 238-324) (Drosophila melanogaster, UniProt P40427); assay: EMSA: recruitment of Exd to its cognate DNA site by polyamides 1-3; conditions: saturating 50 nM compound; Exd 0-100 nM
Description: Protein expression: Drosophila extradenticle (Exd) protein comprising the homeodomain and the extended fourth helix (residues 238-324), as well as ultrabithorax (Ubx) protein homeodomain (residues 233-313 of the Ubx isoform IVa) were expressed and purified after Passner & Aggarwal. The purified proteins Exd and Ubx were used for EMSA studies as described below.
For the templates, the DNA oligonucleotides depicted in FIGS. 2a, 2b, 2c, and 2d were used, SEQ. ID NOS: 5, 6, 7, and 8, respectively. The DNA upper strand was annealed with the respective matching lower strand and both strands were 5′-labeled with γ-^32P-ATP and polynucleotide kinase, using standard procedures.
Gel-shift experiments: The master mix contained 50% BSA/50% glycerol, reaction buffer (150 mM potassium glutamate, 50 mM HEPES pH 7.0, 1 mM DTT, and 5′-end labeled DNA (^32P) The final concentrations in the samples were 100 ng/μL BSA and 10% glycerol. Polyamides were kept in subdued lighting whenever possible. Upon addition of the polyamide to 1 pM DNA, the samples were incubated at 25 °C. for 30 minutes in a 20 μL reaction. Next, Exd was added to the samples and incubated for 1 hour at 4° C. A 9% acrylamide/3% glycerol gel was pre-run for 15 min prior to loading. In each lane 15 μL of a 20 μL reaction were loaded while the gel was running to prevent the samples from being diluted. […]

[6] = molecular target: Exd (Drosophila melanogaster, UniProt P40427); assay: Example 7 EMSA: recruitment of Exd by linker compounds; format: binding; conditions: 50 nM conjugate pre-incubated with target DNA; data not shown
[7] = relative to matched site TGGTCA

Kd [1]: 0.048 nM
Kd ([2]; read-out: Equilibrium Dissociation Constants Kd, TGGCCA, single base pair mismatch site, 22° C., TKMC buffer): 0.97 nM
Relative specificity (square brackets), TGGCCA [2, 7]: 20
ability to discriminate between the CG and the GC mismatch base pair ([3]; TGGCCA versus TGGGCA sites): a property not shown by the parent 1
Kd ([3]; read-out: Equilibrium Dissociation Constants Kd, TGGGCA, single base pair mismatch site, 22° C., TKMC buffer): 0.76 nM
Relative specificity (square brackets), TGGGCA [3, 7]: 16
Kd ([4]; read-out: Equilibrium Dissociation Constants Kd, AGCTCA, single base pair mismatch site, 22° C., TKMC buffer): 3.1 nM
Relative specificity (square brackets), AGCTCA [4, 7]: 65
Structure (SMILES): CN(C)CCCNC(=O)CCNC(=O)c1cc(NC(=O)c2cc(NC(=O)c3cc(NC(=O)c4nc(NC(=O)CCCNC(=O)c5cc(NC(=O)c6cc(NC(=O)c7nc(NC(=O)c8nccn8C)cn7C)cn6CCCN)cn5C)cn4C)cn3C)cn2C)cn1C
ability to recruit Exd to its cognate DNA site (Exd binding) [5]: Neither compound 3 nor 1 showed any ability to recruit Exd
ability to stabilize Exd binding to the adjacent cognate DNA site (TGAT) [6]: Neither the parent polyamide lacking the YPWM hook, nor the polyamide bearing an altered hook (FYPAAK) (SEQ. ID. NO: 14) was able to stabilize Exd binding
